Antibody variant affinities, Ab-95 light chain, assay 2

Reference: Engelhart et al. 2022, doi:10.1038/s41597-022-01779-4. File: FLAb, binding data.

The target is the same throughout: PDVDLGDISGINAS, from the HR2 region of SARS-CoV-2 spike.

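Variants in AAYL52 differ from the parent at up to three CDR positions; double and triple changes were sampled at random. Affinity was read by AlphaSeq, a pooled yeast mating assay with surface-displayed partners. The frequency of each diploid, read from paired DNA barcodes, reflects how well the two displayed proteins bind. Read counts were normalised to the haploid input and turned into Kd by a linear fit to BCL2-family pairs of known affinity, for each replicate. There are three technical replicates.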

The variants keep the heavy chain, the linker and the frameworks of Ab-95 (scFv order VH, a 15-residue (Gly4Ser)3 linker, VL).
VH: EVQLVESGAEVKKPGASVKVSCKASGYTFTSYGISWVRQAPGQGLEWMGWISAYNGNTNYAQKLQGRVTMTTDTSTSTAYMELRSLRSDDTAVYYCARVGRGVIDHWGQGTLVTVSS
VL: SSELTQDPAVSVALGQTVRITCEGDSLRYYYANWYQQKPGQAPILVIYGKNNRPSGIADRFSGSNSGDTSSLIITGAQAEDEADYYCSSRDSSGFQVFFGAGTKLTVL

Variants are written as CDR1, CDR2 and CDR3 of the light chain (limits as in the source). Parent: EGDSLRYYYAN, GKNNRPS, SSRDSSGFQVF. Affinities are written as log10 Kd with Kd in nM; a lower number is a better binder. A mean of the replicates is given; it leaves out those without a signal. Where no diploid with the target was found in that replicate, the entry reads "n.d.": below detection, most likely a poor binder, though not proof of it.

| CDR-L1 | CDR-L2 | CDR-L3 | replicates, log10 nM | mean log10 Kd (nM) |
|---|---|---|---|---|
| EGDSLRYYYAN | GKFGRPS | SSRDSSGKQVF | 3.79 3.43 3.02 | 3.42 |
| EGDSLRYYYAN | GKNNRPG | SSRDSSGFNTF | n.d. n.d. n.d. | n.d. |
| EGDSLRYYYAN | GGNNRPS | SSRKSSGFQHF | n.d. n.d. 2.26 | 2.26 |
| EGDSRRYYYVN | GKNNRPS | SSRDSSGFQVF | 3.65 3.71 3.25 | 3.53 |
| EGDSLRYYYRM | GKNNRPS | ESRDSSGFQVF | n.d. n.d. n.d. | n.d. |
| EGDSLRYYYAN | GKNRRPS | SSNDSSKFQVF | n.d. n.d. n.d. | n.d. |
| EGDALRYYYHN | GKNNRPS | SSRDSSGFQVI | 3.74 4.60 n.d. | 4.17 |
| EGDSLYYYYAN | GKNNKPS | NSRDSSGFQVF | 3.77 3.85 3.16 | 3.59 |
| EGDSLFYYYAN | GKNNRPS | SEFDSSGFQVF | 2.88 3.50 2.91 | 3.10 |
| VGDSLRYYYAV | GKNNRPS | SSVDSSGFQVF | 3.87 n.d. n.d. | 3.87 |
| EGDFLRYYYAM | GKGNRPS | SSRDSSGFQVF | 3.57 n.d. n.d. | 3.57 |
| EGDSLRYYYAN | QKNNRLS | SSRDSSGFIVF | 4.83 n.d. n.d. | 4.83 |
| EGDSLRYYYAN | GKNFRPS | SSRDSHGFQVF | 3.17 2.65 3.38 | 3.06 |
| EGDSLRYYYAN | GKNNRPS | SSRDHSGQWVF | 2.33 2.21 2.19 | 2.24 |
| KGDSLRYYYAN | GKNNRPS | SSRDSSCDQVF | n.d. n.d. 3.02 | 3.02 |
| EGDLLRYMYAN | GKNNRPS | SSRDSSGFQVF | 3.03 3.04 3.13 | 3.07 |
| EGDALAYYYAN | GKNNRPS | SSRDSKGFQVF | 2.77 3.05 3.10 | 2.98 |
| EGDLLRYYYAN | GKNNRPS | SSRDSSGFQDF | 3.38 n.d. 3.16 | 3.27 |
| EGDSLRYYQAS | GKNNRPS | SSRDSSGFQRF | 2.90 1.81 1.61 | 2.10 |
| EGDPLRYYYAN | GKNNRPS | KSRHSSGFQVF | 3.33 3.54 3.71 | 3.52 |
| KGDSLRGYYAN | GKNNKPS | SSRDSSGFQVF | 1.08 1.00 0.48 | 0.85 |
| EPDSLRYYYAN | QKNNRPS | SSRDSSGMQVF | 4.10 n.d. n.d. | 4.10 |
| EGDTLRYYYAN | AKNNRPS | SSRDESGFQVF | 4.31 n.d. n.d. | 4.31 |
| EGDSLRYYYAN | SKNNRPH | SSRDSSGFQVF | 4.40 2.79 3.54 | 3.58 |
| EGDILRYYYAN | GKNNRPS | FSRDSSGTQVF | 3.60 2.98 2.32 | 2.97 |
| EGDSLRYYYAN | MKNNWPE | SSRDSSGFQVF | n.d. n.d. n.d. | n.d. |
| EGDSLRYYYAN | GKNNRSS | SSRPSVGFQVF | 3.93 2.81 2.30 | 3.01 |
| EGDYLRYYYAN | GKNNRMS | SSRDSSGFQVS | 3.22 n.d. n.d. | 3.22 |
| TGDSLRYYFAN | GKNNRPS | ISRDSSGFQVF | 2.67 2.58 2.12 | 2.46 |
| EGDSLRYYYAN | GKNPRPS | KSRDSMGFQVF | 5.51 n.d. n.d. | 5.51 |
| EGDSLRPYAAN | GKNNRPG | SSRDSSGFQVF | 2.37 2.55 2.46 | 2.46 |
| EGDSLRYYYAN | GKNTRPS | SSRDSSGFQMF | n.d. 4.07 n.d. | 4.07 |
| EGDSLRYYYAN | GKNNRPC | SSRDSIKFQVF | n.d. n.d. 4.40 | 4.40 |
| EGDSLRYYYAN | GKNNRIS | ASRDSSGFVVF | 3.53 2.66 2.62 | 2.94 |
| EGDMLRLYYAN | GKNNRPS | SSRDSSGFEVF | 4.47 n.d. n.d. | 4.47 |
| EGDSLRYYYAN | GKNNRPS | SSRDHSWFQRF | 1.75 2.03 1.24 | 1.67 |
| EGDSLRKYYAN | GKNARPS | SSRDSSAFQVF | 3.99 n.d. n.d. | 3.99 |
| EGDSERYYVAN | GKNNRPS | SSADSSGFQVF | 4.01 3.68 4.01 | 3.90 |
| EIDSLRQYYAN | GKNNRPS | SSPDSSGFQVF | n.d. n.d. n.d. | n.d. |

A selection of 5 entries from above:

| CDR-L1 | CDR-L2 | CDR-L3 | replicates, log10 nM | mean log10 Kd (nM) |
|---|---|---|---|---|
| EGDALAYYYAN | GKNNRPS | SSRDSKGFQVF | 2.77 3.05 3.10 | 2.98 |
| EGDSLYYYYAN | GKNNKPS | NSRDSSGFQVF | 3.77 3.85 3.16 | 3.59 |
| EPDSLRYYYAN | QKNNRPS | SSRDSSGMQVF | 4.10 n.d. n.d. | 4.10 |
| EGDSLRYYYAN | GKNRRPS | SSNDSSKFQVF | n.d. n.d. n.d. | n.d. |
| EGDSLRYYQAS | GKNNRPS | SSRDSSGFQRF | 2.90 1.81 1.61 | 2.10 |

Parent in this assay: reference entry 2.31, copy in this library 2.25. As a blank, each scFv also met three strains without target: over library AAYL52, 28% of these pairings were detected, typically at 3.91 and seldom below 2.90.